These results are taken from article PMC5787524, “Discovery of a FLT3 inhibitor LDD1937 as an anti-leukemic agent for acute myeloid leukemia” (Oncotarget, 2017).

In this experiment the test system is MV-4-11 cells. As to the kind of experiment: Cell viability / growth inhibition (EZ-Cytox), MV-4-11. The format is cell-based, human. The following applies: 72 h; called IC50 in supplementary text. Here is the method: MV-4-11 human acute myeloid leukemia cells were purchased from the American Type Culture Collection (ATCC, Rockville, MD, USA, CRL-9591), and the cells were cultured in IMDM medium (Sigma Co., St. Louis, MO, USA) supplemented with 10% fetal bovine serum, 1% penicillin/streptomycin and 4 mM L-glutamine (Life Technology, Grand Island, NY). Jurkat (human acute T lymphocytic leukemia, ATCC TIB-152) and K562 (human chronic myelogenous leukemia, ATCC CCL-243) cells were cultured in RPMI-1640 (Sigma Co.), and MCF7 (human breast adenocarcinoma, ATCC HTB-22) and PC-3 (human prostate adenocarcinoma, ATCC CRL-1435) cells were cultured in DMEM (Sigma Co.) medium supplemented with 10% fetal bovine serum and 1% penicillin/streptomycin. The cultured cells were incubated at 37°C with 5% CO2. Cell viability was assessed with a tetrazolium-based assay using the EZ-Cytox Cell Viability Assay kit (DaeilLab, Korea). Briefly, 2,000 ∼ 15,000 cells were plated in 96-well flat bottom plates in 100 µl of medium. The next day, the cells were treated with compounds along with dimethyl sulfoxide (DMSO, Fisher, Waltham, MA, USA) as a negative control. […] After incubation, the optical density (OD) was measured at a wavelength of 450 nm with a Victor multilabel reader (Perkin Elmer, Waltham, MA, USA). The IC50 was calculated with nonlinear regression using Prism version 5.01 (GraphPad, La Jolla, CA, USA).

By GI50 is commonly meant the concentration that inhibits growth by half. A lower GI50 goes with more potent growth inhibition.

In turn, `COC(=O)c1ccc2c(c1)/C(=C1/Nc3ccccc3/C1=N\O)C(=O)N2` [Compound 1, Methyl (2Z,3E)-3-(hydroxyimino)-2′-oxo-[2,3′-biindolinylidene]-5′-carboxylate] gave a GI50 of 0.041 µM.
